Results on 85 compounds are retold here after PubChem BioAssay AID1654 (Sanford-Burnham Center for Chemical Genomics, 2009).

Chains of the proteins cited; added tags and fusions are not shown.
UniProt P51452, whole entry: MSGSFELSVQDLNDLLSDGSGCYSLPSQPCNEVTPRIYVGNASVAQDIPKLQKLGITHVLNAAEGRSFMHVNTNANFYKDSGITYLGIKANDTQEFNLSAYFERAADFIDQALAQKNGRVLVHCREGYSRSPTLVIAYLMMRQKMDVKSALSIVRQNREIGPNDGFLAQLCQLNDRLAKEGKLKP

Only a part is listed here, and it is no random draw. Some salts and complexes are drawn in separate pieces, as the source files them; their charges need not balance. Calls of active or inactive are those of the source. Rule as the data show it: active = inhibition above about 50%; inactive = the rest.

The experiment has as its target Dual specificity protein phosphatase 3 (Homo sapiens) (UniProt P51452). Nature of the experiment: VHR1 phosphatase inhibitors, primary screen, biochemical, absorbance, uHTS (AID 1654). The settings on record: recombinant VHR phosphatase, pNPP absorbance; at 13.3 µM; stronger effect = higher value.
In general, inhibition refers to the relative decrease from the control value, in per cent. Regarding `CCOC(=O)c1ccc(NP(C)(=O)Oc2ccc(Cl)cc2)cc1` (stereo not given), the inhibition was inactive: -4.8%. Consider `CP(=O)(OC12CC3CC(CC(C3)C1)C2)OC12CC3CC(CC(C3)C1)C2`, for which the inhibition was inactive: 6.2%. Turning to `COc1ccccc1OP(C)(=O)Nc1ccccc1Br` (stereo not given), the inhibition was inactive: 16%.

In the case of `CC(C)(C)c1ccc(OP(C)(=O)O)cc1`, the inhibition is inactive: 24%.

With `CP(=O)(Nc1ccc(Cl)cc1)Oc1ccc(F)cc1` (stereo not given), the inhibition is inactive: 31.5%. For `CN(C)C(=O)c1c([N+](=O)[O-])cc([N+](=O)[O-])cc1[N+](=O)[O-]` the value was inactive: 4%; for `CCN(CC)CC(O)COC(=O)C(O)(c1ccccc1)C1CCCCC1` (stereo not given), inactive: 17.9%.

Take `COc1ccc(OP(C)(=O)Nc2ccc(Br)cc2)cc1` (stereo not given): the inhibition was inactive: 5.4%. For `COc1ccccc1OP(C)(=O)Nc1c(C)n(C)n(-c2ccccc2)c1=O` (stereo not given), the inhibition was inactive: 17.3%.

For `O=C(OCCCN1CCCC1)C(O)(c1ccccc1)C1CCCCC1` (stereo not given), the inhibition is inactive: -2.5%. Take `CP(=O)(Oc1ccccc1)N1CCOC1=O` (stereo not given): the inhibition was inactive: 13.6%. Turning to `CCc1ccc(OP(C)(=O)Nc2cccnc2)cc1` (stereo not given), the inhibition is inactive: 9.9%. With `Cc1c(NP(C)(=O)Oc2ccc(C(C)C)cc2)c(=O)n(-c2ccccc2)n1C` (stereo not given), the inhibition is active: 55.5%. For `O=[N+]([O-])c1cc([N+](=O)[O-])c(Nc2ccccn2)c([N+](=O)[O-])c1` the value was inactive: 22.2%.

Turning to `CP(=O)(Nc1ccccn1)Oc1ccccc1` (stereo not given), the inhibition is inactive: -1.4%. `COc1ccccc1OP(C)(=O)Nc1ccc(C)cc1C` (stereo not given): the inhibition was inactive: 21.4%.

As for `CCc1ccc(OP(C)(=O)O)cc1`, the inhibition is inactive: 7.3%. With `COc1ccccc1OP(C)(=O)Nc1ccc(Br)cc1` (stereo not given), the inhibition was inactive: 2.5%. Take `COc1ccc(OP(C)(=O)Nc2ccccn2)cc1` (stereo not given): the inhibition is inactive: 14%. The value for `CN(C)CCOC(=O)C(O)(c1ccccc1)C1CCCC1` (stereo not given) was inactive: 41.6%; that for `Cc1nc2ccc3ccccc3c2o1.O=[N+]([O-])c1cc([N+](=O)[O-])c(O)c([N+](=O)[O-])c1` was inactive: 11.3%; that for `CP(=O)(Nc1ccc(Cl)cc1Cl)Oc1ccccc1` (stereo not given) was inactive: 16.6%. For `CP(=O)(OCCOc1ccccc1)OCCOc1ccccc1`, the inhibition was inactive: 2%. `Cc1cc(C)cc(OP(C)(=O)Nc2cccc(C(F)(F)F)c2)c1` (stereo not given): the inhibition is inactive: 15.1%.

For the compound `COc1ccccc1OP(C)(=O)Nc1ccc(C)c(C)c1` (stereo not given), the inhibition is inactive: -7.7%. The value for `COc1ccc(OP(C)(=O)Nc2ccccc2Br)cc1` (stereo not given) was inactive: 14.7%; that for `CCN(CC)CCCOC(=O)C(O)(c1ccccc1)C1CCCCC1` (stereo not given) was inactive: 13.4%; that for `CP(=O)(Nc1ccccc1)Oc1ccc(F)cc1` (stereo not given) was inactive: 19.2%. As for `CCCCCOc1ccc(NP(C)(=O)Oc2ccc(Cl)cc2Cl)cc1` (stereo not given), the inhibition was inactive: 5%. With `O=[N+]([O-])c1cc([N+](=O)[O-])c(OC2CCCCC2O)c([N+](=O)[O-])c1` (stereo not given), the inhibition was inactive: 17.6%. Regarding `CCOC(=O)c1ccc(NP(C)(=O)Oc2ccc(F)cc2)cc1` (stereo not given), the inhibition is inactive: 44.9%. Turning to `COc1ccc(OP(C)(=O)Nc2ccc(SC(F)(F)F)cc2)cc1` (stereo not given), the inhibition was inactive: 3.5%.

Regarding `O=C(OC1CN2CCC1CC2)c1ccc([N+](=O)[O-])cc1` (stereo not given), the inhibition was inactive: 23.7%. The value for `O=C(OCCN1CCN(CCOCc2ccccc2)CC1)C(O)(c1ccccc1)c1ccccc1` was inactive: -3.6%; that for `COc1ccc2c(c1O)-c1c(O)c(OC)cc3c1[C@H](C2)[N+](C)(C)CC3.O=[N+]([O-])c1cc([N+](=O)[O-])c([O-])c([N+](=O)[O-])c1[O-]` was inactive: 18.7%. As to `CP(=O)(Nc1ccccc1F)Oc1ccccc1` (stereo not given), the inhibition is inactive: 10%.

`CC(C)c1ccc(OP(C)(=O)Nc2ccc(SC(F)(F)F)cc2)cc1` (stereo not given): the inhibition is inactive: -2.7%. The value for `CP(=O)(Nc1ccc2c(c1)OCCO2)Oc1ccccc1` (stereo not given) was inactive: 4.4%; that for `Cc1ccccc1NP(C)(=O)Nc1ccccc1C` was inactive: 8.3%; that for `CP(=O)(Nc1ccc(SC(F)(F)F)cc1)Oc1ccc(F)cc1` (stereo not given) was inactive: 25.3%.

Take `CCOP(C)(=S)SCC(=O)NC(C)(CC)C(=O)O` (stereo not given): the inhibition is inactive: -9%. `O=[N+]([O-])c1ccc(OP2(=O)COCCO2)cc1` (stereo not given): the inhibition is inactive: 27.7%. As for `Cc1cc(-c2cccc3ccccc23)c(C)cn1.O=[N+]([O-])c1cc([N+](=O)[O-])c(O)c([N+](=O)[O-])c1`, the inhibition was inactive: 13.6%. As for `O=[N+]([O-])c1cc([N+](=O)[O-])c(NCC2CCS(=O)(=O)C2)c([N+](=O)[O-])c1` (stereo not given), the inhibition is inactive: -11.4%. The value for `COc1ccc(OP(C)(=O)Nc2cccc(Br)c2)cc1` (stereo not given) was inactive: 15.1%. Turning to `CN(C)CCOC(=O)C(O)(c1ccccc1)C1CCCCC1` (stereo not given), the inhibition was inactive: 19.9%. For `COc1ccc(NP(C)(=O)Oc2ccccc2OC)cc1` (stereo not given) the value was inactive: 2.7%; for `CN1CCCCC1COC(=O)C1(O)c2ccccc2CCc2ccccc21` (stereo not given), inactive: 7.5%; for `COc1ccccc1OP(C)(=O)Nc1c(C)cccc1C` (stereo not given), inactive: 31.6%. `CCCOc1ccc(NP(C)(=O)Oc2ccc(Cl)cc2)cc1` (stereo not given): the inhibition was inactive: 6.7%. Turning to `CP(=O)(Nc1ccc(SC(F)(F)F)cc1)Oc1ccccc1` (stereo not given), the inhibition was inactive: 7.4%. On to `O=[N+]([O-])c1cc([N+](=O)[O-])c(Nc2nnnn2CCO)c([N+](=O)[O-])c1`, for which the inhibition is inactive: 6.9%. Regarding `CCOC(=O)C(CC)C1=NC(C)(C)Cc2ccccc21.O=[N+]([O-])c1cc([N+](=O)[O-])c(O)c([N+](=O)[O-])c1` (stereo not given), the inhibition is inactive: 26.9%. On to `Cc1nc2ccc3ccccc3c2s1.O=[N+]([O-])c1cc([N+](=O)[O-])c(O)c([N+](=O)[O-])c1`, for which the inhibition is inactive: -0.8%. For `O=[N+]([O-])c1cc([N+](=O)[O-])c(-n2nnc3ccccc32)c([N+](=O)[O-])c1`, the inhibition was inactive: 18.4%. Take `Cc1ccc(C)c(NP(C)(=O)Oc2ccccc2)c1` (stereo not given): the inhibition was inactive: -0.2%. Consider `Cc1cc(C)cc(OP(C)(=O)Nc2ccccn2)c1` (stereo not given), for which the inhibition was inactive: 16.1%. Consider `CP(=O)(Nc1cccc(Br)c1)Oc1ccccc1` (stereo not given), for which the inhibition was inactive: -5.8%. In the case of `COc1ccccc1OP(C)(=O)Nc1cccc(Br)c1` (stereo not given), the inhibition was inactive: 11.2%. For `CCOC(=O)c1ccc(NP(C)(=O)Oc2cc(C)cc(C)c2)cc1` (stereo not given) the value was inactive: -1.6%; for `Cc1cc(C)cc(OP(C)(=O)Nc2ccc(C)cc2C)c1` (stereo not given), inactive: 0%; for `CC1=NCCc2c1[nH]c1ccccc21.O=[N+]([O-])c1cc([N+](=O)[O-])c(O)c([N+](=O)[O-])c1`, inactive: -3.8%. For the compound `O=C(O)c1cccc(Nc2c([N+](=O)[O-])cc([N+](=O)[O-])cc2[N+](=O)[O-])c1`, the inhibition was inactive: 18.8%. In the case of `COc1ccccc1OP(C)(=O)Nc1ccc(C)cc1` (stereo not given), the inhibition is inactive: 22.2%.

For `Cc1ccc(NP(C)(=O)Oc2ccccc2)c(C)c1` (stereo not given), the inhibition is inactive: -8.3%. `CCOC(=O)c1ccc(NP(C)(=O)Oc2ccccc2)cc1` (stereo not given): the inhibition is inactive: 4.4%. The value for `Cc1cc(C)cc(OP(C)(N)=O)c1` (stereo not given) was inactive: -12.3%. `COc1ccccc1OP(C)(=O)Nc1cc(Cl)ccc1C` (stereo not given): the inhibition was inactive: 10.3%. The value for `COc1ccc(OP(C)(=O)Nc2cccc(F)c2)cc1` (stereo not given) was inactive: 16.6%; that for `O=[N+]([O-])c1ccc2c(c1)C=Nc1ccccc1O2` was inactive: 15.5%. The value for `CC(C)(C)c1ccc(OP(C)(=O)Nc2ccc(SC(F)(F)F)cc2)cc1` (stereo not given) was inactive: 7.8%; that for `Cc1cccc(C)c1OP(C)(N)=O` (stereo not given) was inactive: 13.1%. `CCN(CC)CCCOC(=O)C(O)(c1ccccc1)c1ccccc1`: the inhibition was inactive: 8.3%. For the compound `CCOC(=O)c1ccc(NP(C)(=O)Oc2ccc(OC)cc2)cc1` (stereo not given), the inhibition was active: 50.8%. For `CCOP(C)(=S)SCC(=O)NC(C)C(=O)O` (stereo not given) the value was inactive: -6.2%; for `CP(=O)(Nc1ccccn1)Oc1ccc(Cl)cc1` (stereo not given), inactive: 0.1%.

With `CP(=O)(Nc1ccc(SC(F)(F)F)cc1)Oc1ccc(Cl)cc1` (stereo not given), the inhibition was inactive: -15.7%.

Consider `Cc1cccc(C)c1OP(C)(=O)Nc1ccc(SC(F)(F)F)cc1` (stereo not given), for which the inhibition was inactive: 4.7%. The value for `CP(=O)(Oc1ccccc1)OC(c1ccccc1)C(F)(F)F` (stereo not given) was inactive: 20.2%. Turning to `CP(=O)(NC(=O)Nc1ccccc1)Oc1ccccc1` (stereo not given), the inhibition was inactive: 17.4%. As to `CCc1ccc(OP(C)(=O)N2CCN(c3ccc([N+](=O)[O-])cc3)CC2)cc1` (stereo not given), the inhibition is inactive: -1.3%.

For the compound `Cc1cc(C)cc(OP(C)(=O)Nc2ccc(SC(F)(F)F)cc2)c1` (stereo not given), the inhibition is inactive: -14.1%.

Consider `CP(=S)(Nn1cnnc1)Oc1ccccc1` (stereo not given), for which the inhibition was inactive: 1.8%. `CP(=O)(Nc1ccccc1Br)Oc1ccccc1` (stereo not given): the inhibition is inactive: 4.4%. Turning to `COc1ccccc1OP(C)(=O)Nc1ccccc1` (stereo not given), the inhibition is inactive: 12.4%.
